Literature values in US20080090885A1, “Preparation of losartan 5-carboxylic acid and use thereof” (priority 2006, published 2008).

Molecular target: AT1 receptor (Homo sapiens, UniProt P30556)
Conditions: AT1 receptor antagonist; times more potent than losartan

Which “potency relative to losartan” value does the source give for `CCCCc1nc(Cl)c(C(=O)O)n1Cc1ccc(-c2ccccc2-c2nn[nH]n2)cc1` [EXP-3174, losartan 5-carboxylic acid] here?
The value was 10-40 times.
